Test results from ChEMBL document CHEMBL3632621, “Conformationally restricted κ-opioid receptor agonists: Synthesis and pharmacological evaluation of diastereoisomeric and enantiomeric decahydroquinoxalines” (Bioorg Med Chem Lett, 2015).

Chains of the proteins cited; added tags and fusions are not shown.
UniProt P97266, whole entry, looked up: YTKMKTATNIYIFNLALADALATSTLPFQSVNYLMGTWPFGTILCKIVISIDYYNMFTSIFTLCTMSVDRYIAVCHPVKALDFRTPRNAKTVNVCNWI
UniProt P33533, whole entry, looked up: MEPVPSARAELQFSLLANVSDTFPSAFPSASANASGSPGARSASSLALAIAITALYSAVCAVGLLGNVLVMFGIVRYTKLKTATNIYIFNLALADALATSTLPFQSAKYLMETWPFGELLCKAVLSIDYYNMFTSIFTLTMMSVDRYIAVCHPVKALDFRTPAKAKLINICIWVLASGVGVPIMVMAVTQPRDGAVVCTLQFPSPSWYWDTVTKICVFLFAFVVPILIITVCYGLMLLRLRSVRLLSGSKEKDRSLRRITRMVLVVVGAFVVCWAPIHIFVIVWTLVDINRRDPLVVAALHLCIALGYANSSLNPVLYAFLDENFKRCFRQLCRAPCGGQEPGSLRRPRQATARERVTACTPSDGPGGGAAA

Experiments:
[1] = target: Mu-type opioid receptor (Cavia porcellus) (UniProt P97266); test: Displacement of [3H]-DAMGO from mu opioid receptor in guinea pig brain membrane at 1000 nM after 120 mins by scintillation counting
[2] = target: Mu-type opioid receptor (Cavia porcellus) (UniProt P97266); test: Displacement of [3H]-DAMGO from mu opioid receptor in guinea pig brain membrane at 10 uM after 120 mins by scintillation counting
[3] = target: Delta-type opioid receptor (Rattus norvegicus) (UniProt P33533); test: Displacement of [3H]-DPDPE from delta opioid receptor in rat brain membrane at 10 uM after 120 mins by scintillation counting
[4] = target: Delta-type opioid receptor (Rattus norvegicus) (UniProt P33533); test: Displacement of [3H]-DPDPE from delta opioid receptor in rat brain membrane at 1000 nM after 120 mins by scintillation counting

## COC(=O)N1CCN(C(=O)Cc2ccc(Cl)c(Cl)c2)[C@H]2[C@H]1CCC[C@@H]2N1CCCC1
[1]
  inhibition: 1%
[2]
  inhibition: 6%
[3]
  inhibition: 28%

## COC(=O)N1CCN(C(=O)Cc2ccc(Cl)c(Cl)c2)[C@@H]2[C@H]1CCC[C@@H]2N1CCCC1
[1]
  inhibition: 29%
[4]
  inhibition: 24%
